Values quoted from earlier work, collected in patent publication US6486196B2, “Anticancer compounds: process for their preparation and pharmaceutical compositions containing them” (Dr. Reddy's Research Foundation, priority 2000, dated 2002).

Test system: H9 cell
Conditions: cited from earlier work

## dehydroandrographolide succinic acid monoester [DASM]
  concentrations nontoxic to the H9 cell: 50 to 200 µg/mL
